Experimental data from paper PMC11939996 (Biomolecules, 2025).
Entries after “also recorded” stand apart in the source; their conditions may differ. Where two headings read alike, the source gives them in different places.

Legend:
monomeric Aβ40 = test: Bio-layer interferometry, analyte binding to immobilized monomeric Aβ40; set-up: species or system human
Method: (§1) Next, 96-well microplates with analyte solutions were kept at 25 °C and shaken at 1000 rpm. The Aβ samples were pretreated with neat TFA, followed by dissolution in DMSO as described in ref. [61, 66]. […] The rest of the activated amine groups on the sensor were blocked by 1 M ethanolamine solution. […] The sensor surface was regenerated by the passage of 0.5% SDS water solution for 30 s.
(§2) The direct interaction of S100 proteins with monomeric Aβ was studied by biolayer interferometry in the buffer conditions mimicking the physiological conditions (20 mM Tris-HCl, 140 mM NaCl, 4.9 mM KCl, 2.5 mM CaCl2, 1 mM MgCl2, pH 7.4).
(§3) Since the S100 proteins are predominantly dimeric, their BLI sensograms were described within the bivalent analyte model (1), taking into account that the dimer concentration is half of the monomer concentration.

monomeric Aβ42 = test: Bio-layer interferometry, analyte binding to immobilized monomeric Aβ42; set-up: species or system human; settings: heterogeneous ligand model, HSA 30–50 µM, 25 °C, pH 7.4, mean ± SD
Method: as §1, §2, §3

mature Aβ fibrils = test: ThT fluorescence of mature Aβ fibrils; assay type: biochemical, human; settings: HSA 5 μM, fibrils 20 µM monomer equivalent, pH 7.4, 2.5 mM CaCl2
Method: The human Aβ40 samples were pretreated as described in ref. [61] with some modifications. Aβ40 sample was dissolved in 5 mM NaOH at pH 11.8 (0.5 mg/mL) and then rocked gently for 72 h at 4 °C. ThT fluorescence emission was measured mainly as described in ref. [61]. […] The ThT fluorescence intensity (λem = 485 nm, λexc = 440 nm) was recorded every 30 min for 266 h using a BioTek Synergy H1 multimode microplate reader (Agilent Technologies, Inc., Santa Clara, CA, USA) with orbital shaking prior to each measurement. Each measurement was performed in 3–4 repetitions. The control kinetic curves (for the wells without Aβ40) were subtracted from the corresponding kinetic curves of the experimental samples. The control kinetic curves are shown in the Supplementary Materials (Figure S4). Data are presented as the mean ± standard deviation. […] The corresponding kinetic curves are given in the Supplementary Materials (Figures S7 and S8).

3xTg mouse model = settings: cited from earlier work
Source text: (§4) In addition to Aβ isoforms, senile plaques contain metal ions (Cu, Fe, Zn) and dozens of proteins, including immunoglobulins, components of the complement system, and proteins involved in metabolism, molecular transport, blood coagulation/hemostasis, cell adhesion, the extracellular matrix, etc.. […] The latter fa ...

Aβ = settings: monomeric and multimeric Aβ; cited from earlier work
Source text: as §4

[1] = system: patients with mild-to-moderate AD; settings: plasma exchange with replacement of endogenous albumin; cited from earlier work
Source text: as §4

Row | Substance | Kd (monomeric Aβ40; heterogeneous ligand model, site 1, printed number is KD1 multiplied by 10^6, HSA 30–50 µM, 25 °C, pH 7.4, 2.5 mM CaCl2, mean ± SD, n = 3–4, read-out: KD1 × 10^6) | ka1 × 10^−2 (monomeric Aβ40; heterogeneous ligand model, site 1, printed number is ka1 multiplied by 10^−2, HSA 30–50 µM, 25 °C, pH 7.4, mean ± SD) | kd1 × 10^4 (monomeric Aβ40; heterogeneous ligand model, site 1, printed number is kd1 multiplied by 10^4, HSA 30–50 µM, 25 °C, pH 7.4, mean ± SD) | Kd (monomeric Aβ40; heterogeneous ligand model, site 2, printed number is KD2 multiplied by 10^6, HSA 30–50 µM, 25 °C, pH 7.4, mean ± SD, read-out: KD2 × 10^6) | ka2 × 10^−2 (monomeric Aβ40; heterogeneous ligand model, site 2, printed number is ka2 multiplied by 10^−2, HSA 30–50 µM, 25 °C, pH 7.4, mean ± SD) | kd2 × 10^4 (monomeric Aβ40; heterogeneous ligand model, site 2, printed number is kd2 multiplied by 10^4, HSA 30–50 µM, 25 °C, pH 7.4, mean ± SD) | Kd (monomeric Aβ40; restated from Table 1 / Table 2 (HSA: highest-affinity site only), read-out: equilibrium dissociation constant used in Appendix A, Aβ40) | ka1 × 10^−2 (monomeric Aβ42; site 1, printed number is ka1 multiplied by 10^−2) | ka2 × 10^−2 (monomeric Aβ42; site 2, printed number is ka2 multiplied by 10^−2) | ThT signal of mature Aβ fibrils (mature Aβ fibrils) | effect of intracerebroventricular infusion (3xTg mouse model) | effect on Aβ binding and fibrillation (Aβ) | cognitive and functional decline [1]
1 | HSA: Albumin, non-denatured human serum (cat.#126654), Merck | 220 ± 120 nM | 7.9 ± 4.4 M^−1s^−1 | 1.72 ± 0.04 s^−1 | 6700 ± 4500 nM | 0.36 ± 0.24 M^−1s^−1 | 2.38 ± 0.06 s^−1 | 220 nM | 3.5 ± 0.5 M^−1s^−1 | 0.28 ± 0.18 M^−1s^−1 | did not alter signi; also recorded: did not change significantly and remained stable | multifactorial beneficial effects, leading to improvement in cognitive tests | ability to bind monomeric and multimeric forms of Aβ and also prevents its fibrillation | –
2 | therapeutic albumin: albumin replacing endogenous albumin in plasma exchange | – | – | – | – | – | – | – | – | – | – | – | – | slowed cognitive and functional decline
